# The entries are a selection whose mix differs from that of the whole data set. The source made the active and inactive calls.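 The calls were made as follows: active = inhibition of the luminescence signal of 40% or more relative to plate controls, in a single-dose primary screen at 18.75 µM; inactive = the rest.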
# Assay: blockers of HIF-2a driven luciferase – luminescence, 786-0 RCC cells, primary screen (AID 624352)
# Conditions: 786-0 RCC cells HIF-2a reporter, overnight, at 18.8 µM, hits give high values
row,SMILES,inhibition
1,CN(C)C1(CNC(=O)c2ccc(Cl)c(S(N)(=O)=O)c2)CCCCC1,inactive: 16.4%
2,O=P(Nc1ccccn1)(c1ccc(Br)cc1)c1ccc(Br)cc1,inactive: 12.8%
3,Nc1ccc(CCCCOc2ccccc2)cc1,inactive: -368%
4,COc1ccc(N)c([N+](=O)[O-])c1[N+](=O)[O-],inactive: 1.68%
5,C[C@H]1OP(=O)(Oc2ccccc2)[C@H](O)[C@H](O)[C@H]1N=[N+]=[N-] (stereo partly specified),inactive: 9.6%
6,O=P(Nc1nc2ccccc2s1)(c1ccccc1)c1ccccc1,inactive: -15.8%
7,CCC(=O)N1C2C3N(C(=O)CC)C1C1N(C(=O)CC)C(C(N1C(=O)CC)N3C(=O)CC)N2C(=O)CC,inactive: 23.5%
8,O=C(OC1CN2CCC1CC2)c1ccccc1 (stereo unspecified),inactive: 4.91%
9,CC(=O)NC(SC(=S)N(CC(C)C)CC(C)C)C(Cl)(Cl)Cl (stereo unspecified),inactive: -0.399%
10,Cc1ccc(OP(=O)(Nc2ccccn2)Oc2ccc(C)cc2)cc1,inactive: 23.8%
11,COC(=O)c1cc2c(s1)N=C(c1ccccc1)N(C)P2(=O)N1CCOCC1 (stereo unspecified),inactive: 16.8%
12,CN(C)C(=O)Oc1noc2ccccc12,inactive: -1.67%
13,O=c1c2cc([N+](=O)[O-])ccc2[nH]c2c([N+](=O)[O-])cc([N+](=O)[O-])cc12,inactive: 20.7%
14,Cc1ccccc1OP(=O)(Nc1ccccn1)Oc1ccccc1C,inactive: 13%
15,CC(NC(=O)COC(=O)C(O)(c1ccccc1)c1ccccc1)c1ccccc1 (stereo unspecified),inactive: 7.15%
16,Cc1ccc(NP(=O)(Oc2cccc(C)c2)Oc2cccc(C)c2)nc1,inactive: 20.3%
17,c1ccc(-c2nn[nH]n2)c(-c2nn[nH]n2)c1,inactive: 21.8%
18,O=C(NC1CCS(=O)(=O)C1)NP(=S)(Oc1ccccc1)Oc1ccccc1 (stereo unspecified),inactive: -14.5%
19,CCNC(=S)/N=C(\N)N[N+](=O)[O-],inactive: 11.3%
20,O=P1(N(CCCl)CCCl)OCCC2CCCCN21 (stereo unspecified),inactive: 12.1%
21,C[C@@H]1C=CCP(=O)(Oc2ccccc2)O1 (stereo partly specified),inactive: 11.5%
22,C[C@H]1OP(=O)(Oc2ccccc2)C[C@@H]2O[C@@H]21 (stereo partly specified),inactive: 12.4%
23,Cc1ccccc1CN(C)C(=O)COC(=O)C(O)(c1ccccc1)c1ccccc1,inactive: 9.04%
24,COC(=O)C1(C)COP(=O)(NCc2ccccc2)OC1 (stereo unspecified),inactive: 12.1%
25,N#C/C(=C\c1ccc(N(CCBr)CCBr)cc1)C(N)=O,inactive: -20.4%
26,CC(=O)c1ccc(N2CC2c2ccncc2)cc1 (stereo unspecified),inactive: 16.3%

row,SMILES,inhibition
1,CC(=O)Nc1ccc(Oc2c([N+](=O)[O-])cc([N+](=O)[O-])cc2[N+](=O)[O-])cc1,inactive: 16.1%
2,CC(=O)Nc1ccc([As](=O)(O)O)c(O)c1,inactive: 22%
3,CCOc1ccc(C2=NCC(CBr)S2)cc1 (stereo unspecified),inactive: 4.23%
4,O=P1(Nc2nc3ccc(Cl)cc3s2)COc2ccccc2O1 (stereo unspecified),inactive: -56.6%
5,CC(C)(C)C(=O)NC(Sc1ccccc1)C(Cl)(Cl)Cl (stereo unspecified),inactive: 22.8%
6,CCc1cc(O)c([N+](=O)[O-])c(C)c1[N+](=O)[O-],inactive: 4.26%
7,O=C(NC(Sc1ccncn1)C(Cl)(Cl)Cl)c1ccccc1 (stereo unspecified),inactive: 17.5%
8,Oc1ccccc1CNc1ccccn1,inactive: -19.9%
9,CC(C)CC(=O)NC(Sc1ccc(Cl)cc1)C(Cl)(Cl)Cl (stereo unspecified),inactive: 9.99%
10,Nc1cc(N)c2nonc2c1[N+](=O)[O-],inactive: 5.86%
11,O=[N+]([O-])C1C(O)C(O)C([N+](=O)[O-])C(O)C1O (stereo unspecified),inactive: 12.2%
12,Cc1ccc(N/C(=N/P(=O)(N2CCOCC2)N2CCOCC2)N2CCOCC2)cc1,inactive: 2.93%
13,CN(C(=O)Cc1ccc(Cl)c(Cl)c1)[C@H]1CCCC[C@H]1N1CCCC1,inactive: 4.18%
14,NC(=O)c1cc([N+](=O)[O-])cc([N+](=O)[O-])c1N,inactive: 14.6%
15,Clc1ccc(Cl)c(NC2=NCC(CBr)S2)c1 (stereo unspecified),inactive: -0.843%
16,CN1CCCC(OC(=O)C(c2ccccc2)c2ccccc2)C1 (stereo unspecified),inactive: 8.05%
17,Cc1ccc(OP(=O)(Nc2nccs2)Oc2ccc(C)cc2)cc1,inactive: 5.08%
18,COc1ccccc1OP(=O)(Nc1ccc(C)cn1)Oc1ccccc1OC,inactive: 5.45%
19,Nc1cccc2ccc([As](=O)(O)O)cc12,inactive: 5.17%
20,CCN(N=Nc1nonc1N)c1nonc1N,inactive: 31.3%
21,CN(C)P(=O)(N(C)C)n1c(Nc2ccccc2)nnc1-c1ccccc1,inactive: -58.4%
22,O=P(Nc1nc2ccc(Cl)cc2s1)(c1ccccc1)c1ccccc1,inactive: 7.96%
23,CCCC1OP(N)(=O)OCC1CC (stereo unspecified),inactive: 8.97%
24,O=C(O)c1ccccc1[As](=O)(O)O,inactive: 13.3%
25,CC(=O)Nc1ccc([As](=O)(O)O)cc1,inactive: 9.38%
26,CN(C(=O)Cc1ccc(Cl)c(Cl)c1)[C@H]1CCCC[C@@H]1N1CCCC1,inactive: 1.49%

row,SMILES,inhibition
1,Cc1ccc(NP(=O)(Oc2ccccc2F)Oc2ccccc2F)nc1,inactive: 5.72%
2,CCOP(=O)(Nc1ccccc1)OCC,inactive: 9.15%
3,Cc1cc(SC(NC(=O)c2ccc(F)cc2)C(Cl)(Cl)Cl)ncn1 (stereo unspecified),inactive: 9.84%
4,O=[N+]([O-])c1ncn(CCn2ncnc2[N+](=O)[O-])n1,inactive: -1.67%
5,CC(C)(C)C(=O)NC(Sc1ccncn1)C(Cl)(Cl)Cl (stereo unspecified),inactive: 3.15%
6,O=C(O)CNc1ccc([As](=O)(O)O)cc1,inactive: 19%
7,O=[N+]([O-])c1cccc(NC2=NCC(CBr)S2)c1 (stereo unspecified),inactive: 5.2%
8,COC(=O)C1(C)COP(=O)(Nc2ccccc2)OC1 (stereo unspecified),inactive: 6.08%
9,O=P1(N(CCCl)CCCl)OCCCS1 (stereo unspecified),inactive: 8.32%
10,O=C(Nc1cc([As](=O)(O)O)ccc1O)c1ccccc1,inactive: 4.88%
11,CCN(/C(=N/P(=O)(N1CCOCC1)N1CCOCC1)N1CCOCC1)c1ccc(OC)cc1,inactive: 12.7%
12,C[N+]1=C2C=CC=CC=C2SC12C([N+](=O)[O-])=CC([N+](=O)[O-])=C[C-]2[N+](=O)[O-] (stereo unspecified),inactive: -13.5%
13,Nc1ccc([As](=O)(O)c2ccc(N)cc2)cc1,inactive: 7.99%
14,c1cc(-c2nn[nH]n2)ccc1-c1nn[nH]n1,inactive: 16.7%
15,CC1CCN(C(=O)Oc2c(Cl)cc(Cl)c3cccnc23)CC1,inactive: -44.5%
16,CN(C)C(=O)OCCc1n(C)cc[n+]1C,inactive: 6.9%
17,CC(C)=N/N=C(\N)N[N+](=O)[O-],inactive: 13.1%
18,CC(C)c1nc(Nc2ccccc2)n(P(=O)(N(C)C)N(C)C)n1,inactive: 4.47%
19,COc1ccc(C2=NCC(CBr)S2)cc1 (stereo unspecified),inactive: 14.5%
20,O=[N+]([O-])c1cc([N+](=O)[O-])c(CCNc2ccccc2)c([N+](=O)[O-])c1,inactive: -12.6%
21,CCc1nc2c(n1)c1c(non1O)c1c2no[n+]1[O-],inactive: 36.6%
22,Cc1ccc(NP(=O)(Oc2ccccc2)Oc2ccccc2)nc1,inactive: 10.5%
23,CC(=O)N1C2C3N(C(C)=O)C1C1N(C(C)=O)C(C(N1C(C)=O)N3C(C)=O)N2C(C)=O,inactive: 7.15%
24,O=[N+]([O-])c1cccc2n[nH]nc12,inactive: 12.8%

# — PubChem BioAssay AID624352 (Sanford-Burnham Center for Chemical Genomics, 2012)
